Values quoted from earlier work, collected in patent publication US10400006B2, “Estrogen receptor modulators” (THE REGENTS OF THE UNIVERSITY OF CALIFORNIA, priority 2014, dated 2019).

Amino acid sequences for entries named in this document (tags omitted).
UniProt P03372, whole entry: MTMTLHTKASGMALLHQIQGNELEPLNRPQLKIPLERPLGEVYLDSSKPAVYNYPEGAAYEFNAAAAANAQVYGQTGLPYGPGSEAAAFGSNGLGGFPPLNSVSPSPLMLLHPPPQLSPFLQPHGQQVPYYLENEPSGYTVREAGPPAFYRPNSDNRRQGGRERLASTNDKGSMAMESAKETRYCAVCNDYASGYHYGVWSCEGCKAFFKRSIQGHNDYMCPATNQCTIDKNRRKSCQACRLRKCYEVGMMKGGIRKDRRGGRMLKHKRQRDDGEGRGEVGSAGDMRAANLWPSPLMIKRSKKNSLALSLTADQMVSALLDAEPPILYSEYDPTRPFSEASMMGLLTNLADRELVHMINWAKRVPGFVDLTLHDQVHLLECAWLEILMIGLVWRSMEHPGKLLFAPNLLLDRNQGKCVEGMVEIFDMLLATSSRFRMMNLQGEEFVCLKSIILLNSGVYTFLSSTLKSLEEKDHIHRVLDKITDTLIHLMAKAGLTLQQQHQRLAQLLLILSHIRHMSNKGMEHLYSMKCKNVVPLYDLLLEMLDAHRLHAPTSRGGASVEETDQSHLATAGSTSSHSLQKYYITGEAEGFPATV

Target: ER (Homo sapiens, UniProt P03372)
Settings: FES-PET studies; cited from earlier work

C[C@]12CC[C@@H]3c4ccc(O)cc4C[C@@H](CCCCCCCCC[S+]([O-])CCCC(F)(F)C(F)(F)F)[C@H]3[C@@H]1CC[C@@H]2O (stereo partly shown) [fulvestrant]
patients with significant residual ER availability in tumors during therapy: 38%
